Experiment [1] deals with T1, peptidyl-glutamyl hydrolyzing activity of the proteasome (Bos taurus, UniProt Q3MHN0).
T1 construct: endogenous in cells; host or cells: primary bovine aortic endothelial cells (BAE), total lysate after 15-16 h treatment of the cells
T1 sequence (Q3MHN0 1-239): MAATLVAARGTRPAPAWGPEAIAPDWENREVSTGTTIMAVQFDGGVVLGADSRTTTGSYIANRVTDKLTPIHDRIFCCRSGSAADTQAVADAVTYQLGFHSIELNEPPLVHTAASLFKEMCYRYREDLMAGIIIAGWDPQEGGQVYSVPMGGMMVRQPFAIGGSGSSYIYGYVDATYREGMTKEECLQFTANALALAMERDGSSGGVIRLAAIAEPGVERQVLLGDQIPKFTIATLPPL
Description: Proteasomal activity in lysates of treated BAE cells, substrate Z-LLE-AMC. Type of experiment: cell-based, bovine. Conditions: total cell lysates after 15 h incubation of BAECs with 50 µM inhibitor. The method, then: Proteasomal activity is reduced in PSI and LLnV treated cell lysates. Lysates prepared from BAE cells incubated for 15 hours with 50 µM of the indicated inhibitors were assayed for their ability to suppress proteasomal function by using Suc-LLVY-AMC as substrate for the chymotryptic activity (a) and Z-LLE-AMC as substrate for the post acidic residue cleaving activity (b). Activities are expressed as the relative fluorescence measured after 45 min of incubation with the substrates and reflect the mean of two independent experiments each performed in duplicate.
BAE cells (1 x 10^6) were plated onto 10 cm plastic dishes and treated for 16 h with either Leupeptin, E64, LLnM, LLnV or PSI (50 µM final concentration) which were diluted form 1000 x DMSO stock solutions. DMSO at a final concentration of 0.1% served as a vehicle-only control. Floating and adherent cells were harvested, lysed by sonication in ice-cold solution of 20 mM Tris-HCI pH 7.5, containing 20% glycerol, centrifuged in a benchtop centrifuge (10 min, 2000 g). The protein concentration of the resulting supernatant was determined by the bicinchoninic acid (BCA) assay (Smith et al., Anal. Biochem. 150 (1985), 76 - 85). […]

A further experiment has as its system p27Kip 1. Description: Western blotting of HUE cell lysates. Conditions: 50 µM, immunoblot. Type of experiment: cell-based, human. Here is the method: • a. Analysis of PSI-induced DNA fragmentation by agarose gel electrophoresis. […] Neither caspase inhibitor (Ac-YVAD-CHO 250 µM, lane 4; Ac-DEVD-CHO 250 µM, lane 5) nor DMSO (lane 6) induced the characteristic pattern of DNA fragmentation. M1 and M2: DNA size markers (kb). • b. Immunoblot analysis of HUE cell lysates after incubation with PSI. Lysates of HUE cells (30 µg) which had been treated with 50 µM PSI for the times indicated, were separated on 10 or 12% SDS-polyacryamide gels, transferred to nitrocellulose and probed with antibodies recognizing p27^Kip 1, PARP, β-catenin, bcl-2, bcl-xL and bad as described in Materials and Method. Equal loading was controlled by using an antibody directed against GAPDH enzyme.
HUE cell lysates were prepared from cells treated with 50 µM PSI for the times indicated in Fig. 2B by lysing the cells in 1% SDS, 10 mM Tris-HCl pH 7.5 and denaturation at 95°C for 10 min. Equal amounts of protein were separated by 12% SDS-PAGE, transferred to nitrocellulose filters and blocked over night with TBS (50 mM Tris pH 7.5, 200 mM NaCI, 0.05% Tween 20), containing 5% non-fat dry milk-powder. […]
In general terms: A western blot detects proteins with antibodies after separation by electrophoresis.

Structures are written as SMILES. Peptide text beside a SMILES is read from it. * marks the point of attachment. Cbz = O=C(OCc1ccccc1)*; OtBu = CC(C)(C)O*

For `CC[C@H](C)[C@H](NC(=O)OCc1ccccc1)C(=O)N[C@@H](CCC(=O)OC(C)(C)C)C(=O)N[C@@H](C)C(=O)N[C@H](C=O)CC(C)C` [PSI, carbobenzoxy-L-isoleucyl-y-t-butyl-L-glutamyl-L-alanyl-L-leucinal] (Cbz-IE(OtBu)AL-aldehyde), the “total cellular peptidyl-glutamyl hydrolyzing activity (Z-Leu-Leu-Glu-AMC)” value in experiment [1] is “similarly reduced”. Also, in the experiment on p27Kip 1, the “relative amounts of GAPDH, bc12, bcl-xl and bad” value is “no change”.
